Experiments:
[1] = molecular target: Poly [ADP-ribose] polymerase 2 (Homo sapiens, UniProt Q9UGN5)
HT-29 [2] = assay: cells; settings: Homo sapiens, HT-29, read-out: INH
HT-29 [3] = assay: cells; settings: Homo sapiens, HT-29, read-out: INH; remark: listed apart in the source
HT-29 [4] = assay: cells; settings: Homo sapiens, HT-29, read-out: INH; remark: listed apart in the source
[5] = molecular target: T1, Poly [ADP-ribose] polymerase tankyrase-1 (Homo sapiens, UniProt O95271)
T1 sequence (O95271 whole entry): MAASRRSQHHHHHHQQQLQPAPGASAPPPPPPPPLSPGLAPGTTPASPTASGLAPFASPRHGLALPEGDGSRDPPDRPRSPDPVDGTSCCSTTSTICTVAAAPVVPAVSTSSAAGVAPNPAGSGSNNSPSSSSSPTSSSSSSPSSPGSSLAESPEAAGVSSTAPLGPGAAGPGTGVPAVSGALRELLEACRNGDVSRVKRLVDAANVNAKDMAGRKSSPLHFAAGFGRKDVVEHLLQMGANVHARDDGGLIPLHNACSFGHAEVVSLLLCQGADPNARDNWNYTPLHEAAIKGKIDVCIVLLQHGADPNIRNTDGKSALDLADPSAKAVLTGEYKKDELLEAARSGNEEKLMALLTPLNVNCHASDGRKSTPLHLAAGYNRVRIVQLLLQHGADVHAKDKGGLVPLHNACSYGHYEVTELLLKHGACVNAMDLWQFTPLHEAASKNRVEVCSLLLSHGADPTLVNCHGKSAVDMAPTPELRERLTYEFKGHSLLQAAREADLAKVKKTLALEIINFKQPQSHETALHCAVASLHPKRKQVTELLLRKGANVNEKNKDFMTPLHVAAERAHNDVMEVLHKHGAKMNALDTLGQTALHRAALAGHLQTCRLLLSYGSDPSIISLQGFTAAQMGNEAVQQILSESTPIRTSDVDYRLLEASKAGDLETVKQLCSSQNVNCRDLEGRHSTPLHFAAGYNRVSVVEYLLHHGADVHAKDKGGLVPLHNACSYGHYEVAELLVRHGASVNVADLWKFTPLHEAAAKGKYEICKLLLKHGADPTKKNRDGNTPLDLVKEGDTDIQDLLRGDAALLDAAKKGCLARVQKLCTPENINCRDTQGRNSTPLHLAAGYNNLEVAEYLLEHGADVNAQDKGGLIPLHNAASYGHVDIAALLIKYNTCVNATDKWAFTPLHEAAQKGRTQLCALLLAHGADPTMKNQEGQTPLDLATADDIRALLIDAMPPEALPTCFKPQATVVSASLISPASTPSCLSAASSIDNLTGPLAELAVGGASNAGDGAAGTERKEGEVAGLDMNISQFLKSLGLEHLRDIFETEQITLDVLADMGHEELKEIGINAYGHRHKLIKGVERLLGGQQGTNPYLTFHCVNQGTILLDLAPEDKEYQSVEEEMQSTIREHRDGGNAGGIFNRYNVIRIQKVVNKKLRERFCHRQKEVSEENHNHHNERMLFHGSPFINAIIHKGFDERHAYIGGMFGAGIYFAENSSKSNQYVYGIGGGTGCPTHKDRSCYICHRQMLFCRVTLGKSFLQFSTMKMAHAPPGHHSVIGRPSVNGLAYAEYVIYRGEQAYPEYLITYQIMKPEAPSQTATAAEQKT

The chains behind the UniProt entries cited, without tags or fusion partners. Where a name states a change or a piece, a line headed by the entry shows the natural chain unless it says otherwise.
UniProt Q9UGN5: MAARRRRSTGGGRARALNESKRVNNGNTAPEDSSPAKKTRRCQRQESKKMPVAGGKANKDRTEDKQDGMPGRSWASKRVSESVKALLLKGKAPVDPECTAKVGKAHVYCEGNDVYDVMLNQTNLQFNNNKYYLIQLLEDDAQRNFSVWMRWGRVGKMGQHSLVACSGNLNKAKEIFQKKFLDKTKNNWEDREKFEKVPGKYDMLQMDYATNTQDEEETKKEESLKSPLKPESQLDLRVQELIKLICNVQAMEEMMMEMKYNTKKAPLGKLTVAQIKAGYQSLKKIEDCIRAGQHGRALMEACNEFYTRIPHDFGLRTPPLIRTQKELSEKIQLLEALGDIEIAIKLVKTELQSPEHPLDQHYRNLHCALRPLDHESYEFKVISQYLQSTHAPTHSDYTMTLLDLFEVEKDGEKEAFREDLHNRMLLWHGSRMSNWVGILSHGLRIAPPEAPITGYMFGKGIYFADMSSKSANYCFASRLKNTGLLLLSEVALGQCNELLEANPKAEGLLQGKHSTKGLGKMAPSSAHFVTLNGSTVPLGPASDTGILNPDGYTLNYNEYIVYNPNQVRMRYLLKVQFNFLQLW
UniProt P09874, whole entry: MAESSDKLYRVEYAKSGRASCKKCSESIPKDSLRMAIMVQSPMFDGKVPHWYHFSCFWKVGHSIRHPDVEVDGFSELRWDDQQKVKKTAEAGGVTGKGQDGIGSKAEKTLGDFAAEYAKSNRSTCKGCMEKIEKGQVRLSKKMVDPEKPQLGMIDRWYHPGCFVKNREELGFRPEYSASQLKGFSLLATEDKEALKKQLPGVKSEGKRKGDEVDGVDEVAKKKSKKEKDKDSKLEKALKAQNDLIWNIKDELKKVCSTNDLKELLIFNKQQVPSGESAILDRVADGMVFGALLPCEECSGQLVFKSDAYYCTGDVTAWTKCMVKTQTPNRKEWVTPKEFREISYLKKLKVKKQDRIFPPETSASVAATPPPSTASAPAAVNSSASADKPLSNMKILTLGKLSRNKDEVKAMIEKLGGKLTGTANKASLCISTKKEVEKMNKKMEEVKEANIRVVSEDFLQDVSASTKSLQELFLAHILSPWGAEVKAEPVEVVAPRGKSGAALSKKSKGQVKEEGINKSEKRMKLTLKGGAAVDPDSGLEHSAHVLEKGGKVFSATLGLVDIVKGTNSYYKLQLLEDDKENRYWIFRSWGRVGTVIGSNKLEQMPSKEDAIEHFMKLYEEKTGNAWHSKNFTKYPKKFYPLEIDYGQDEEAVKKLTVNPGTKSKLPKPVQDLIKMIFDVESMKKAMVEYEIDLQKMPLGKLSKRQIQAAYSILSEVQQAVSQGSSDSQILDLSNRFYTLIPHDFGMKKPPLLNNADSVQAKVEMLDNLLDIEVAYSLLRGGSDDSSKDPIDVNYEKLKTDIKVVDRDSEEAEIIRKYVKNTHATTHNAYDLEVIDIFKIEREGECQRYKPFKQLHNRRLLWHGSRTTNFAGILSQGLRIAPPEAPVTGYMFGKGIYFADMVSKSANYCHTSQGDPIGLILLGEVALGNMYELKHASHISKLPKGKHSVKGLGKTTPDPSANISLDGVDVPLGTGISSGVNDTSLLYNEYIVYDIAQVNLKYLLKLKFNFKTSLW

[6] = molecular target: Poly [ADP-ribose] polymerase 1 (Homo sapiens, UniProt P09874)
[7] = molecular target: Poly [ADP-ribose] polymerase tankyrase-2 (Homo sapiens, UniProt Q9H2K2); assay: biochemical

Compound	IC50 [1] [nM]	inhibition at 100 µM (HT-29 [2]) [%]	inhibition at 10 µM (HT-29 [3]) [%]	inhibition at 1 µM (HT-29 [4]) [%]	IC50 [5] [nM]	IC50 [6] [nM]	IC50 [7] [nM]
Cc1cccc2c(O)nc(-c3ccc(C(F)(F)F)cc3)nc12	3100	0	7	0			
Cc1cccc2c(=O)[nH]c(-c3ccc(Br)cc3)nc12	10500	0	6	6			
COc1cccc2c(O)nc(-c3ccc(C(F)(F)F)cc3)nc12	570	0	0	0	73	> 100000	87
Cc1cccc2c(=O)[nH]c(-c3ccc(F)cc3)nc12	683	0	10	8			
Cc1cccc2c(=O)[nH]c(-c3ccc(Cl)cc3)nc12	6350	0	60	0			
O=c1[nH]c(-c2ccc(Cl)cc2)nc2ccccc12	2600	5	0	0		> 100000	
Cc1cccc2c(=O)[nH]c(-c3ccc(CNC(=O)OCc4ccccc4)cc3)nc12	> 100000	4	12	13			
COc1cccc2c(=O)[nH]c(-c3ccc(Br)cc3)nc12	259	0	0	0	111	> 100000	106
O=c1[nH]c(-c2ccc(Br)cc2)nc2ccccc12	> 100000	30	15	1	224	> 100000	101
COc1cccc2c(=O)[nH]c(-c3ccc(Cl)cc3)nc12	6020	0	0	0	155	> 10000	62
COc1cccc2c(=O)[nH]c(-c3ccc(F)cc3)nc12	1560	0	0	0	299	> 10000	459
Oc1nc(-c2ccc(F)cc2)nc2ccccc12	4690	1	8	5	781	> 100000	1100
O=c1[nH]c(-c2ccc([N+](=O)[O-])cc2)nc2ccccc12	2060	0	0	0	1100	> 10000	259
O=c1[nH]c(-c2ccc(Br)cc2)nc2c(O)cccc12		77	65	0	47	130	15
O=c1[nH]c(-c2ccc(C(F)(F)F)cc2)nc2ccccc12	> 10000	0	0	0	425	> 100000	133
COc1cccc2c(O)nc(-c3ccc([N+](=O)[O-])cc3)nc12	928	0	0	0	873	> 10000	863
COc1cccc2c(O)nc(-c3ccccc3)nc12	1540	19	0	0	475	> 10000	1030
O=c1[nH]c(-c2ccc(Cl)cc2)nc2c(O)cccc12		68	60	0	46	645	49
Oc1nc(-c2ccccc2)nc2c(O)cccc12		68	70	5	195	1030	180
O=C(NCc1ccc(-c2nc3ccccc3c(=O)[nH]2)cc1)OCc1ccccc1	> 10000					> 10000	45

Reference: ChEMBL document CHEMBL3826913 (Eur J Med Chem, 2016)
